# Measurements published in paper PMC6964506 (ACS Omega, 2019).
# Amino acid sequences for entries named in this document (tags omitted). A change or cut given only in a name is not applied to a line headed by its entry.
# UniProt O43924: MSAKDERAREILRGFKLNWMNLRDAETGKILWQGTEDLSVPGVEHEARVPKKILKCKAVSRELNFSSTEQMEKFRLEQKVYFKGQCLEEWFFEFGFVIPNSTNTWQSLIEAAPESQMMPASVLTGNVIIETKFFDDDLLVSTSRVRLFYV
# Biological target: PDE6D/avi-K-RasFMe (Homo sapiens, UniProt O43924)
# Experiment: SPR inhibition of PDE6D binding to captured avi-K-RasFMe
# Details: read-out: IC50 ± SEM, inhibition of PDE6D/avi-K-RasFMe, 1.25 μM PDE6D, n = 3
compound,measurement,value
"c1ccc(Cn2c(-c3ccc(OC[C@H](C4CCNCC4)n4c(-c5ccccc5)nc5ccccc54)cc3)nc3ccccc32)cc1 [Deltarasin, reference compound]",IC50,1.9 ± 0.1 µM
